Measured values reported in ChEMBL document CHEMBL3585322, “Synthesis, enantiomeric separation and docking studies of spiropiperidine analogues as ligands of the nociceptin/orphanin FQ receptor” (2014).

Sequences of proteins named here, by UniProt entry; tags and fusion partners are left off.
UniProt P41146, whole entry: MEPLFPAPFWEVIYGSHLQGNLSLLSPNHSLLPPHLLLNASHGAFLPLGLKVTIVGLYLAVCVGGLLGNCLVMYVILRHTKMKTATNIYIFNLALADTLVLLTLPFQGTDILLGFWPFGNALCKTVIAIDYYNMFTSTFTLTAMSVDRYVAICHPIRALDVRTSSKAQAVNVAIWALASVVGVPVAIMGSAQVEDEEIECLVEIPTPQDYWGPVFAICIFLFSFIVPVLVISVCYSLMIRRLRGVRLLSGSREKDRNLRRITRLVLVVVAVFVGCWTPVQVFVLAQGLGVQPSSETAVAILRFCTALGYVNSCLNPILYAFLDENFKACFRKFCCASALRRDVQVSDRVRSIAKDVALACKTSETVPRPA

Target: Nociceptin receptor (Homo sapiens, UniProt P41146)
Experiment: Agonist activity at human recombinant NOP receptor expressed in CHO cells co-expressing C-terminally modifed Gaqi5 protein by Fluo-4AM dye based calcium mobilization assay

O=C(O)C(=O)O.O=C1NCN(c2ccccc2)C12CCN(CC1COc3ccccc3O1)CC2 (stereo unspecified)
pEC50: 6.49
